Measurements reported in paper PMC4869360, “An allosteric role for receptor activity-modifying proteins in defining GPCR pharmacology” (Cell Discovery, 2016).

System: AMY1(a) receptor (CT(a)/RAMP1), CTR ECD alanine mutants
Experiment: 125I-hαCGRP radioligand binding, AMY1(a) CTR mutants
Conditions: whole Cos-7 cells

“^125I-hαCGRP: radioligand purchased from PerkinElmer” was tested, and the 125I-CGRP binding (Q52, Y53 and Y56 to Ala) was “substantially reduced” and the 125I-hαCGRP binding (W79, F99, D101, F102, H121, R126, W128 and Y131 to Ala, ~50 pM, 1 h, 37 °C) was “abolished”.
